Values of other authors, collected in paper PMC7993274 (Clinical and Translational Science, 2020).

Details: patients with psoriasis, up to 12 mg total daily dose; cited from earlier work

BMS‐986165
acne and aphthous ulcer AEs: Several cases of dose‐dependent, mild‐to‐moderate acne, and cases of aphthous ulcer
